{"source": "patent US20030201224A1", "about": "“Microbial consortium for the biodegradation of dithiocarbamates” (priority 2002, published 2003)", "key": {"microbial consortium": {"tested_on": "microbial consortium", "conditions": "soil", "protocol": "One soil environment was inoculated with approximately 1.2×10^7 consortium members/g soil while the other remained uninoculated. Nitrogen and phosphorus was added to both systems. The initial soil pH was 6.8 and the temperature varied from 18° C. to 27° C. Water was added to maintain the dry weight at about 30%. Each soil system was mixed weekly to provide aeration."}, "consortium": {"tested_on": "consortium", "assay": "Degradation of other N-alkyl dithiocarbamates by the consortium (1000 ml bioreactor)", "conditions": "time 0 h; pH 7.2, 20-27° C."}}, "note": "Where two headings read alike, the source gives them in different places."}
{"smiles": "CN(C)C(=S)[S-].[Na+]", "note": "[SDM, Sodium dimethyl dithiocarbamate]", "values": [{"measurement": "PERCENT degradation of SDM", "setting": "microbial consortium; 100 mg SDM per kg soil, 10 d", "result": 81, "unit": "%"}, {"measurement": "PERCENT degradation of SDM", "setting": "microbial consortium; 100 mg SDM per kg soil, 14 d", "result": 87.3, "unit": "%"}, {"measurement": "PERCENT degradation of SDM", "setting": "microbial consortium; 100 mg SDM per kg soil, 20 d", "result": 91, "unit": "%"}, {"measurement": "PERCENT degradation of SDM", "setting": "microbial consortium; 100 mg SDM per kg soil, 28 d", "result": 92.4, "unit": "%"}, {"measurement": "PERCENT degradation of SDM", "setting": "microbial consortium; 500 mg SDM per kg soil, 10 d", "result": 88, "unit": "%"}, {"measurement": "PERCENT degradation of SDM", "setting": "microbial consortium; 500 mg SDM per kg soil, 14 d", "result": 92, "unit": "%"}, {"measurement": "PERCENT degradation of SDM", "setting": "microbial consortium; 500 mg SDM per kg soil, 20 d", "result": 91, "unit": "%"}, {"measurement": "PERCENT degradation of SDM", "setting": "microbial consortium; 500 mg SDM per kg soil, 28 d", "result": 89, "unit": "%"}, {"measurement": "PERCENT degradation of SDM", "setting": "microbial consortium; 1000 mg SDM per kg soil, 28 d", "result": 81, "unit": "%"}, {"measurement": "% degradation (percent loss over the abiotic Control)", "setting": "consortium", "result": 3.02, "unit": "%"}]}
